We go through 102 compounds from PubChem BioAssay AID2557 (NMMLSC, 2010).

The chains behind the UniProt entries cited, without tags or fusion partners.
UniProt P13612, whole entry, looked up: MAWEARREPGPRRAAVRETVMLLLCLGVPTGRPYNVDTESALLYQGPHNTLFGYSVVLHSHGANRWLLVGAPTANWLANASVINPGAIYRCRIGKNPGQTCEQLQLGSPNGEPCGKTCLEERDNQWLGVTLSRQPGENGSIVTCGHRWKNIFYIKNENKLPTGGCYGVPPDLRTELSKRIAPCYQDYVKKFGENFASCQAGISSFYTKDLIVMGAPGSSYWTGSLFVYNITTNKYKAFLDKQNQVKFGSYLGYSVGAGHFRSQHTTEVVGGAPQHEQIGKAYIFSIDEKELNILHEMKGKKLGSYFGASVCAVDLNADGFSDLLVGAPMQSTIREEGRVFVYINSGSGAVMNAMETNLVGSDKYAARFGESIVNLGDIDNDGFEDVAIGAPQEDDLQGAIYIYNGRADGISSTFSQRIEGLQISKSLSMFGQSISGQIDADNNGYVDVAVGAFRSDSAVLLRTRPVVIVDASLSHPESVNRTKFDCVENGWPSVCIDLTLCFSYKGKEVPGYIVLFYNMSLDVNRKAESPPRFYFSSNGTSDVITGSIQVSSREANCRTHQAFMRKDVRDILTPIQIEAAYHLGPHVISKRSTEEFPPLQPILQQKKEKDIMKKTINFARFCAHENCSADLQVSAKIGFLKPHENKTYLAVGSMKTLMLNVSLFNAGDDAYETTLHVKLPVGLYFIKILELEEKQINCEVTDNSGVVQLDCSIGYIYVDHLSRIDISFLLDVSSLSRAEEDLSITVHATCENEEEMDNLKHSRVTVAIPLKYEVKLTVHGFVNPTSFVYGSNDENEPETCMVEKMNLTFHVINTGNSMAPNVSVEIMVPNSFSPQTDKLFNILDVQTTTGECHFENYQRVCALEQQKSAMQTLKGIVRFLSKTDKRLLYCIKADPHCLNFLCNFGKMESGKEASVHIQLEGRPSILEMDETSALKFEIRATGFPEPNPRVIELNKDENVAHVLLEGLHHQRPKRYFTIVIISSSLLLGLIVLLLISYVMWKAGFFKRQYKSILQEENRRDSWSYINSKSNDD

Structures are written as SMILES. The entries are a selection whose mix differs from that of the whole data set. Activity calls are given as the source filed them. Rule as the data show it: active = inhibition above about 50%; inactive = the rest.

For the assay, the target named is Integrin alpha-4 (Homo sapiens) (UniProt P13612). Briefly: VLA-4 integrin binding inhibitors – MLPCN library, flow cytometry, VLA-4 expressing cells, VLA-4 allosteric modulator project, primary screen (AID 2557). The following applies: ligand binding flow cytometry, stronger effect = higher value, about 7 µM as worked out from the volumes in the protocol. For orientation: In flow cytometry, cells or beads pass a laser one at a time.
In the case of `C[N+]1=C2C=CC=CC=C2SC12C([N+](=O)[O-])=CC([N+](=O)[O-])=C[C-]2[N+](=O)[O-]` (configuration not stated), the inhibition (commonly the drop in the measured response relative to a control, in per cent) is inactive: 5.48%.
Regarding `Nc1ccc([As](=O)(O)c2ccc(N)cc2)cc1`, the inhibition was inactive: -0.84%.
The result for `CCN(/C(=N/P(=O)(N1CCOCC1)N1CCOCC1)N1CCOCC1)c1ccc(OC)cc1` reads inactive: -4.1%; that for `CN(C)C(=O)OCCc1n(C)cc[n+]1C`, inactive: 3.91%.
For the compound `CC(C)=N/N=C(\N)N[N+](=O)[O-]`, the inhibition is inactive: 28.9%.
The figure for `CC1CCN(C(=O)Oc2c(Cl)cc(Cl)c3cccnc23)CC1` is inactive: 9.87%.
The result for `COc1ccc(C2=NCC(CBr)S2)cc1` (configuration not stated) reads inactive: 16.6%.
`CC(=O)N1C2C3N(C(C)=O)C1C1N(C(C)=O)C(C(N1C(C)=O)N3C(C)=O)N2C(C)=O`: the inhibition was inactive: 4.97%.
As to `O=[N+]([O-])c1cccc2n[nH]nc12`, the inhibition was inactive: -9.05%.
For `O=[N+]([O-])c1cc([N+](=O)[O-])c(CCNc2ccccc2)c([N+](=O)[O-])c1`, the inhibition was inactive: 21.4%.
Turning to `CCc1nc2c(n1)c1c(non1O)c1c2no[n+]1[O-]`, the inhibition was inactive: 0.44%.
Regarding `Cc1ccc(NP(=O)(Oc2ccccc2)Oc2ccccc2)nc1`, the inhibition was inactive: 6.18%.
As for `CC(C)(C)C(=O)NC(Sc1ccncn1)C(Cl)(Cl)Cl` (configuration not stated), the inhibition was inactive: 1.93%.
For `O=[N+]([O-])c1ncn(CCn2ncnc2[N+](=O)[O-])n1`, the inhibition is inactive: 9.91%.
The result for `O=[N+]([O-])c1cccc(NC2=NCC(CBr)S2)c1` (configuration not stated) reads inactive: 5.82%; that for `O=C(O)CNc1ccc([As](=O)(O)O)cc1`, inactive: -3.54%.
Turning to `O=C(Nc1cc([As](=O)(O)O)ccc1O)c1ccccc1`, the inhibition is inactive: 9.02%.
The result for `O=[N+]([O-])c1cc([N+](=O)[O-])c(CCN2CCOCC2)c([N+](=O)[O-])c1` reads inactive: -1.01%; that for `CCN(N=Nc1nonc1N)c1nonc1N`, inactive: 10.6%.
Turning to `Nc1cccc2ccc([As](=O)(O)O)cc12`, the inhibition is inactive: -4.15%.
The figure for `CC(=O)Nc1ccc([As](=O)(O)O)cc1` is inactive: 11.4%; for `O=C(O)c1ccccc1[As](=O)(O)O` it is inactive: 8.05%.
The figure for `O=P(Nc1nc2ccc(Cl)cc2s1)(c1ccccc1)c1ccccc1` is inactive: 2.87%.
The result for `CN(C(=O)Cc1ccc(Cl)c(Cl)c1)[C@H]1CCCC[C@@H]1N1CCCC1` reads inactive: 0.38%; that for `Cc1ccc(NP(=O)(Oc2ccccc2F)Oc2ccccc2F)nc1`, inactive: 1.69%.
Turning to `Cc1cc(SC(NC(=O)c2ccc(F)cc2)C(Cl)(Cl)Cl)ncn1` (configuration not stated), the inhibition is inactive: 16.1%.
The result for `CCOP(=O)(Nc1ccccc1)OCC` reads inactive: 2.95%; that for `Nc1cc(N)c2nonc2c1[N+](=O)[O-]`, inactive: 13.4%; that for `CC(C)CC(=O)NC(Sc1ccc(Cl)cc1)C(Cl)(Cl)Cl` (configuration not stated), inactive: 12.4%.
Turning to `O=C(NC(Sc1ccncn1)C(Cl)(Cl)Cl)c1ccccc1` (configuration not stated), the inhibition is inactive: -2.52%.
For `Cc1c2non([O-])c-2c(C)[n+](=O)[n+]1[O-]`, the inhibition is inactive: 19.3%.
For the compound `Oc1ccccc1CNc1ccccn1`, the inhibition is inactive: 4.64%.
Regarding `NC(=O)c1cc([N+](=O)[O-])cc([N+](=O)[O-])c1N`, the inhibition was inactive: -1.38%.
The result for `Cc1ccc(N/C(=N/P(=O)(N2CCOCC2)N2CCOCC2)N2CCOCC2)cc1` reads inactive: 2.56%; that for `CN(C(=O)Cc1ccc(Cl)c(Cl)c1)[C@H]1CCCC[C@H]1N1CCCC1`, inactive: -10.9%; that for `Cc1ccc(OP(=O)(Nc2nccs2)Oc2ccc(C)cc2)cc1`, inactive: -5.14%.
As for `COc1ccccc1OP(=O)(Nc1ccc(C)cn1)Oc1ccccc1OC`, the inhibition is inactive: 10.4%.
Take `CN1CCCC(OC(=O)C(c2ccccc2)c2ccccc2)C1` (configuration not stated): the inhibition is inactive: 2.88%.
For `Clc1ccc(Cl)c(NC2=NCC(CBr)S2)c1` (configuration not stated), the inhibition was inactive: 4.22%.
Consider `CC(=O)c1ccc(N2CC2c2ccncc2)cc1` (configuration not stated), for which the inhibition is inactive: 4.72%.
On to `C[C@H]1OP(=O)(Oc2ccccc2)C[C@@H]2O[C@@H]21` (some centres not stated), for which the inhibition is inactive: -10.1%.
The result for `C[C@@H]1C=CCP(=O)(Oc2ccccc2)O1` (some centres not stated) reads inactive: 11.5%; that for `Cc1ccccc1CN(C)C(=O)COC(=O)C(O)(c1ccccc1)c1ccccc1`, inactive: -13.7%.
In the case of `CC(=O)Nc1ccc(Oc2c([N+](=O)[O-])cc([N+](=O)[O-])cc2[N+](=O)[O-])cc1`, the inhibition is inactive: 4.65%.
As for `CC(=O)Nc1ccc([As](=O)(O)O)c(O)c1`, the inhibition was inactive: -8.48%.
As to `CCOc1ccc(C2=NCC(CBr)S2)cc1` (configuration not stated), the inhibition is inactive: 1.53%.
The figure for `O=P1(Nc2nc3ccc(Cl)cc3s2)COc2ccccc2O1` (configuration not stated) is inactive: 2.87%.
The figure for `CC(C)(C)C(=O)NC(Sc1ccccc1)C(Cl)(Cl)Cl` (configuration not stated) is inactive: 39%; for `Cc1ccc(OP(=O)(Nc2ccccn2)Oc2ccc(C)cc2)cc1` it is inactive: 7.79%.
Regarding `CC(=O)NC(SC(=S)N(CC(C)C)CC(C)C)C(Cl)(Cl)Cl` (configuration not stated), the inhibition was inactive: 12%.
The result for `COC(=O)c1cc2c(s1)N=C(c1ccccc1)N(C)P2(=O)N1CCOCC1` (configuration not stated) reads inactive: 10.8%; that for `CCC(=O)N1C2C3N(C(=O)CC)C1C1N(C(=O)CC)C(C(N1C(=O)CC)N3C(=O)CC)N2C(=O)CC`, inactive: 5.29%; that for `O=C(OC1CN2CCC1CC2)c1ccccc1` (configuration not stated), inactive: -3.22%.
The result for `CN(C)C(=O)Oc1noc2ccccc12` reads inactive: 1.05%.
The result for `CC(NC(=O)COC(=O)C(O)(c1ccccc1)c1ccccc1)c1ccccc1` (configuration not stated) reads inactive: 7.73%.
On to `Cc1ccccc1OP(=O)(Nc1ccccn1)Oc1ccccc1C`, for which the inhibition is inactive: 10.3%.
On to `O=C(NC1CCS(=O)(=O)C1)NP(=S)(Oc1ccccc1)Oc1ccccc1` (configuration not stated), for which the inhibition was inactive: -9.55%.
On to `CCNC(=S)/N=C(\N)N[N+](=O)[O-]`, for which the inhibition was inactive: -5.91%.
The result for `CCOC(=O)NC(Sc1ccccc1)C(Cl)(Cl)Cl` (configuration not stated) reads inactive: 3.36%.
As for `Cc1ccc(NP(=O)(Oc2cccc(C)c2)Oc2cccc(C)c2)nc1`, the inhibition is inactive: 10.3%.
In the case of `c1ccc(-c2nn[nH]n2)c(-c2nn[nH]n2)c1`, the inhibition was inactive: 6.15%.
The figure for `O=[N+]([O-])c1ncn(CCn2cnc([N+](=O)[O-])n2)n1` is inactive: 10.2%.
The result for `CC(=O)NC(SC(=S)N(C)C)C(Cl)(Cl)Cl` (configuration not stated) reads inactive: 5.32%; that for `O=[N+]([O-])c1ccc(O)c(/C=N/Nc2ccc([N+](=O)[O-])cc2[N+](=O)[O-])c1`, inactive: 2.83%.
Regarding `O=[As](O)(c1ccccc1)c1ccc(O)cc1`, the inhibition was inactive: -21.4%.
The figure for `C(Cc1nn[nH]n1)Cc1nn[nH]n1` is inactive: 11.4%.
As for `Nc1ccc([As](=O)(O)c2ccc([N+](=O)[O-])cc2)cc1`, the inhibition was inactive: 11.5%.
As for `O=C(OC1CN2CCC1CC2)c1cccc(Cl)c1` (configuration not stated), the inhibition was inactive: -3.54%.
The result for `CN(C)C1(CNC(=O)c2ccc(Cl)c(S(N)(=O)=O)c2)CCCCC1` reads inactive: -30.3%.
Regarding `O=P(Nc1ccccn1)(c1ccc(Br)cc1)c1ccc(Br)cc1`, the inhibition was inactive: 1.25%.
As to `C[C@H]1OP(=O)(Oc2ccccc2)[C@H](O)[C@H](O)[C@H]1N=[N+]=[N-]` (some centres not stated), the inhibition was inactive: -8.14%.
The figure for `O=P(Nc1nc2ccccc2s1)(c1ccccc1)c1ccccc1` is inactive: 23.7%.
For the compound `O=P(Nc1nccs1)(c1ccccc1)c1ccccc1`, the inhibition is inactive: -7.88%.
The figure for `CC(C)C(=O)NC(Sc1ccccc1)C(Cl)(Cl)Cl` (configuration not stated) is inactive: 31.7%.
The figure for `c1nnnn1CCn1cnnn1` is inactive: 15%; for `COc1ccccc1CNC(=O)COC(=O)C(O)(c1ccccc1)c1ccccc1` it is inactive: 0.04%; for `CC1(CBr)Cn2c(nc3ccccc3c2=O)S1` (configuration not stated) it is inactive: 8.14%.
As to `O=[As](O)(c1ccccc1Br)c1ccccc1Br`, the inhibition was inactive: 10.8%.
For `CN(C(=O)Cc1ccc(Cl)c(Cl)c1)[C@@H]1CCCC[C@H]1N1CCCC1`, the inhibition was inactive: -7.33%.
The figure for `CC(C)/C=N\N=C(\N)N[N+](=O)[O-]` is inactive: 14.5%; for `CCOP(=O)(Nc1ccc(C)cn1)OCC` it is inactive: -17.2%; for `CN(CCCl)Cc1cc(Cl)c(NC2=NCCN2)c(Cl)c1` it is inactive: 25.5%.
As for `CCOP(=O)(NC(=NC(C)c1ccccc1)NC(C)c1ccccc1)OCC` (configuration not stated), the inhibition was inactive: -10.4%.
For the compound `CCC1=CC2Cc3nc4ccc(Cl)cc4c(N)c3C(C1)C2` (configuration not stated), the inhibition is inactive: -0.31%.
As to `O=P1(Nc2ccccn2)COc2ccccc2OC1`, the inhibition is inactive: 0.71%.
The result for `CC(C)(C)C(=O)NC(Sc1ncccn1)C(Cl)(Cl)Cl` (configuration not stated) reads inactive: 4.53%; that for `Clc1n[nH]nc1-c1nn[nH][15n]1`, inactive: 3.61%.
On to `O=P1(Nc2ncccn2)COc2ccccc2OC1`, for which the inhibition was inactive: -6.37%.
In the case of `O=[As](O)(c1cccs1)c1cccs1`, the inhibition was inactive: 1.73%.
On to `Cc1ccc(OCC(=O)OC2CN3CCC2CC3)cc1` (configuration not stated), for which the inhibition was inactive: 11.6%.
The result for `NS(=O)(=O)c1cccc(NC(=O)COC(=O)C(O)(c2ccccc2)c2ccccc2)c1` reads inactive: -1.02%; that for `O=P1(Nc2ccc(Br)cn2)COc2ccccc2OC1`, inactive: 24.7%; that for `Nc1cccc([As](=O)(O)c2ccccc2)c1`, inactive: -10.5%.
The result for `Cc1ccc(C(=O)OC2CN3CCC2CC3)cc1` (configuration not stated) reads inactive: 0%; that for `CC1CCC(C(C)C)C(OP(=O)(Nc2ccccn2)c2ccccc2)C1` (configuration not stated), inactive: 0.82%.
The result for `Cc1nn(-c2ccccc2)c2c1P(=O)(N1CCOCC1)N(C)C(c1ccccc1)=N2` (configuration not stated) reads inactive: 10.1%.
In the case of `O=C(/C=C/c1ccccc1)OC1CN2CCC1CC2` (configuration not stated), the inhibition was inactive: -2.95%.
For the compound `CN(C)C1(CNC(=O)c2ccc(S(C)(=O)=O)cc2)CCCCC1`, the inhibition was inactive: -0.09%.
The result for `NC(=O)Nc1ccc([As](=O)(O)O)cc1` reads inactive: 1.59%; that for `CN(C(=O)Cc1ccc(Cl)c(Cl)c1)[C@H]1CC[C@@]2(CCCO2)C[C@@H]1N1CCCC1`, inactive: 26%.
Regarding `O=[N+]([O-])c1ccc2c(c1)nnn2O`, the inhibition was inactive: -1.52%.
As to `CN(C)C(=O)c1cc([N+](=O)[O-])cc2c1-c1c(cc([N+](=O)[O-])cc1[N+](=O)[O-])C2=O`, the inhibition is inactive: 22.3%.
